system: influx of neutrophils to the lung in LPS-challenged rats; assay: Rat LPS neutrophilia model; format: in vivo; details: intratracheal, LPS aerosol 100 ug/ml 15 min, lavage 4 hours later, in at least one of the range of conditions tested, significant p<0.05, nonsignificant p>0.05
Procedure: The effect of compounds on the influx of neutrophils to the lung in LPS-challenged rats is evaluated as follows. The test compound is suspended in one of the following solutions: 0.5% tween 80/PBS, 0.5% tween 80/saline, 10% EtOH/saline (with pH adjusted to 2.0, or 8.0 with HCl, or unadjusted), Saline @ pH 2.0, 6.5 or 8.0, 0.5% Tragacanth, 1% DMSO/20% Encapsin/Saline, or acidified 5% Tragacanth. The suspension process may be aided by the use of a glass homogenizer. For intratracheal administration, the animals are anesthetized with inhaled isoflurane and placed in a supine position, the trachea is intubated with a steel gavage needle (1.5 inch, 22 gauge, small ball) or a Penn-Century Microsprayer Aerosolizer (model IA-IB) and 200 ul of dosing solution is delivered. The animals are visually monitored during the recovery process, which typically occurs within two minutes. It is noted that the test compounds may be alternatively administered via the microsprayer in a dry powder blend with a suitable excipient, such as lactose.
Rats treated with compound or vehicle (15 min-24 hours pretreatment) are exposed to an LPS aerosol (100 ug/ml) for 15 min. Four hours later the rats are euthanized with pentobarbital (100 mg/kg, i.p.) and the airways are lavaged with 5 washes of 5 ml of phosphate buffered saline. The harvested cells are stained (Diffquick) and counted to determine total and differential cell data. […] Inhibition of neutrophil levels relative to no compound controls is calculated based on the differential counts.
The data is obtained as % inhibition using a particular concentration and pretreat time.

Structure (SMILES)	inhibition of neutrophilia (neutrophil levels in lung lavage relative to no compound controls)
CCCNC(=O)c1ccc(C)c(-c2nc(NCCCN(CC)CC)nc3c2ccc(=O)n3-c2c(F)cccc2F)c1 [Example 122, 3-[2-{[3-(diethylamino)propyl]amino}-8-(2,6-difluorophenyl)-7-oxo-7,8-dihydropyrido[2,3-d]pyrimidin-4-yl]-4-methyl-N-propylbenzamide]	statistically nonsignificant inhibition
CCN(CC)CCCNc1nc(-c2cc(C(=O)NCC(C)C)ccc2C)c2ccc(=O)n(-c3c(F)cccc3F)c2n1 [Example 124, 3-[2-{[3-(diethylamino)propyl]amino}-8-(2,6-difluorophenyl)-7-oxo-7,8-dihydropyrido[2,3-d]pyrimidin-4-yl]-4-methyl-N-(2-methylpropyl)benzamide]	statistically significant inhibition
CCN(CC)CCCNc1nc(-c2cc(C(=O)NC3CCCC3)ccc2C)c2ccc(=O)n(-c3c(F)cccc3F)c2n1 [Example 125, N-cyclopentyl-3-[2-{[3-(diethylamino)propyl]amino}-8-(2,6-difluorophenyl)-7-oxo-7,8-dihydropyrido[2,3-d]pyrimidin-4-yl]-4-methylbenzamide]	statistically nonsignificant inhibition
CCN(CC)CCCNc1nc(-c2cc(C(=O)NCC(F)(F)F)ccc2C)c2ccc(=O)n(-c3c(F)cccc3F)c2n1 [Example 128, 3-[2-{[3-(diethylamino)propyl]amino}-8-(2,6-difluorophenyl)-7-oxo-7,8-dihydropyrido[2,3-d]-pyrimidin-4-yl]-4-methyl-N-(2,2,2-trifluoroethyl)benzamide]	inactive
CCNC(=O)c1ccc(C)c(-c2nc(NCCCN(CC)CC)nc3c2ccc(=O)n3-c2c(F)cccc2F)c1 [Example 129, 3-[2-{[3-(diethylamino)propyl]amino}-8-(2,6-difluorophenyl)-7-oxo-7,8-dihydropyrido[2,3-d]pyrimidin-4-yl]-N-ethyl-4-methylbenzamide]	statistically nonsignificant inhibition

— patent publication US8207176B2 (Glaxo Group Limited, priority 2005, dated 2012)
